Results from PubChem BioAssay AID463075 (University of Pittsburgh Molecular Library Screening Center, 2010).
The entries are a selection whose mix differs from that of the whole data set. Some salts or complexes appear as unconnected parts, following the source record. The source made the active and inactive calls.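 How the source made its calls: active means activation, meaning protection from cell death, of at least 50% relative to plate controls; inactive means activation below 50%.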

test: rescue of FADD-deficient Jurkat cells from TNF-alpha death – single concentration, primary screen (AID 463075); settings: Jurkat FADD-/- TNF necroptosis rescue, ATP luminescence, 24 h; at 10 µM; hits give high values; 0 = TNF only, 100 = no-TNF cells;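 further: necroptosis triggered by 40 ng/mL TNF-alpha added together with compound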

Compound	activation (protection from cell death)
COc1ccc(OP(C)(=O)Nc2ccccc2Br)cc1 (stereo not drawn)	inactive: 2.81%
COc1ccccc1OP(C)(=O)Nc1ccc(C)c(C)c1 (stereo not drawn)	inactive: 0.287%
Cc1cc(C)cc(OP(C)(=O)Nc2cccc(C(F)(F)F)c2)c1 (stereo not drawn)	inactive: -0.383%
CP(=O)(Nc1ccc(Cl)cc1Cl)Oc1ccccc1 (stereo not drawn)	inactive: 0.865%
CP(=O)(OCCOc1ccccc1)OCCOc1ccccc1	inactive: -0.606%
Cc1nc2ccc3ccccc3c2o1.O=[N+]([O-])c1cc([N+](=O)[O-])c(O)c([N+](=O)[O-])c1	inactive: -7.34%
CN(C)CCOC(=O)C(O)(c1ccccc1)C1CCCC1 (stereo not drawn)	inactive: 0.0781%
COc1ccc(OP(C)(=O)Nc2ccccn2)cc1 (stereo not drawn)	inactive: 1.2%
COc1ccccc1OP(C)(=O)Nc1ccc(Br)cc1 (stereo not drawn)	inactive: 1.07%
CCc1ccc(OP(C)(=O)O)cc1	inactive: -0.839%
COc1ccccc1OP(C)(=O)Nc1ccc(C)cc1C (stereo not drawn)	inactive: -4.07%
CP(=O)(Nc1ccccn1)Oc1ccccc1 (stereo not drawn)	inactive: -0.561%
Cc1c(NP(C)(=O)Oc2ccc(C(C)C)cc2)c(=O)n(-c2ccccc2)n1C (stereo not drawn)	inactive: -1.18%
O=[N+]([O-])c1cc([N+](=O)[O-])c(Nc2ccccn2)c([N+](=O)[O-])c1	inactive: -12.5%
CCc1ccc(OP(C)(=O)Nc2cccnc2)cc1 (stereo not drawn)	inactive: 0.41%
CP(=O)(Oc1ccccc1)N1CCOC1=O (stereo not drawn)	inactive: -4.48%
O=C(OCCCN1CCCC1)C(O)(c1ccccc1)C1CCCCC1 (stereo not drawn)	inactive: 2.25%
COc1ccccc1OP(C)(=O)Nc1c(C)n(C)n(-c2ccccc2)c1=O (stereo not drawn)	inactive: 0.222%
COc1ccc(OP(C)(=O)Nc2ccc(Br)cc2)cc1 (stereo not drawn)	inactive: 13.9%
CCN(CC)CC(O)COC(=O)C(O)(c1ccccc1)C1CCCCC1 (stereo not drawn)	inactive: 1.35%

Compound	activation (protection from cell death)
CN(C)C(=O)c1c([N+](=O)[O-])cc([N+](=O)[O-])cc1[N+](=O)[O-]	inactive: -8.76%
CP(=O)(Nc1ccc(Cl)cc1)Oc1ccc(F)cc1 (stereo not drawn)	inactive: 3.47%
COc1ccccc1OP(C)(=O)Nc1ccccc1Br (stereo not drawn)	inactive: 0.524%
CC(C)(C)c1ccc(OP(C)(=O)O)cc1	inactive: -0.276%
CP(=O)(OC12CC3CC(CC(C3)C1)C2)OC12CC3CC(CC(C3)C1)C2	inactive: -0.763%
CCOC(=O)c1ccc(NP(C)(=O)Oc2ccc(Cl)cc2)cc1 (stereo not drawn)	inactive: 5.7%
COc1ccc(NP(C)(=O)Oc2ccccc2OC)cc1 (stereo not drawn)	inactive: 0.125%
CN(C)CCOC(=O)C(O)(c1ccccc1)C1CCCCC1 (stereo not drawn)	inactive: 0.274%
COc1ccc(OP(C)(=O)Nc2cccc(Br)c2)cc1 (stereo not drawn)	inactive: 3.3%
O=[N+]([O-])c1cc([N+](=O)[O-])c(NCC2CCS(=O)(=O)C2)c([N+](=O)[O-])c1 (stereo not drawn)	inactive: -2.5%
Cc1cc(-c2cccc3ccccc23)c(C)cn1.O=[N+]([O-])c1cc([N+](=O)[O-])c(O)c([N+](=O)[O-])c1	inactive: -2.03%
O=[N+]([O-])c1ccc(OP2(=O)COCCO2)cc1 (stereo not drawn)	inactive: 2.58%
CCOP(C)(=S)SCC(=O)NC(C)(CC)C(=O)O (stereo not drawn)	inactive: -2.68%
CP(=O)(Nc1ccc(SC(F)(F)F)cc1)Oc1ccc(F)cc1 (stereo not drawn)	inactive: 3.56%
Cc1ccccc1NP(C)(=O)Nc1ccccc1C	inactive: 1.91%
CP(=O)(Nc1ccc2c(c1)OCCO2)Oc1ccccc1 (stereo not drawn)	inactive: -0.107%
CC(C)c1ccc(OP(C)(=O)Nc2ccc(SC(F)(F)F)cc2)cc1 (stereo not drawn)	inactive: 3.11%
CP(=O)(Nc1ccccc1F)Oc1ccccc1 (stereo not drawn)	inactive: -1.48%
COc1ccc2c(c1O)-c1c(O)c(OC)cc3c1[C@H](C2)[N+](C)(C)CC3.O=[N+]([O-])c1cc([N+](=O)[O-])c([O-])c([N+](=O)[O-])c1[O-]	inactive: -0.0534%
O=C(OCCN1CCN(CCOCc2ccccc2)CC1)C(O)(c1ccccc1)c1ccccc1	inactive: -1.46%

Compound	activation (protection from cell death)
O=C(OC1CN2CCC1CC2)c1ccc([N+](=O)[O-])cc1 (stereo not drawn)	inactive: 3.39%
COc1ccc(OP(C)(=O)Nc2ccc(SC(F)(F)F)cc2)cc1 (stereo not drawn)	inactive: 3.75%
CCOC(=O)c1ccc(NP(C)(=O)Oc2ccc(F)cc2)cc1 (stereo not drawn)	inactive: 2.21%
CCCCCOc1ccc(NP(C)(=O)Oc2ccc(Cl)cc2Cl)cc1 (stereo not drawn)	inactive: 0.244%
CP(=O)(Nc1ccccc1)Oc1ccc(F)cc1 (stereo not drawn)	inactive: 0.282%
CCN(CC)CCCOC(=O)C(O)(c1ccccc1)C1CCCCC1 (stereo not drawn)	inactive: 0.595%
O=C(O)c1cccc(Nc2c([N+](=O)[O-])cc([N+](=O)[O-])cc2[N+](=O)[O-])c1	inactive: 1.05%
CC1=NCCc2c1[nH]c1ccccc21.O=[N+]([O-])c1cc([N+](=O)[O-])c(O)c([N+](=O)[O-])c1	inactive: 2.38%
Cc1cc(C)cc(OP(C)(=O)Nc2ccc(C)cc2C)c1 (stereo not drawn)	inactive: 0.0554%
CCOC(=O)c1ccc(NP(C)(=O)Oc2cc(C)cc(C)c2)cc1 (stereo not drawn)	inactive: 1.57%
COc1ccccc1OP(C)(=O)Nc1cccc(Br)c1 (stereo not drawn)	inactive: -1.39%
COc1cc(C(=O)NCC2(N3CCOCC3)CCCCC2)cc(Cl)c1OC(C)C	inactive: 0.0646%
Cc1cc(C)cc(OP(C)(=O)Nc2ccccn2)c1 (stereo not drawn)	inactive: -0.00952%
CP(=O)(Nc1cccc(Br)c1)Oc1ccccc1 (stereo not drawn)	inactive: 0.0925%
Cc1ccc(C)c(NP(C)(=O)Oc2ccccc2)c1 (stereo not drawn)	inactive: -0.637%
O=[N+]([O-])c1cc([N+](=O)[O-])c(-n2nnc3ccccc32)c([N+](=O)[O-])c1	inactive: -0.637%
Cc1nc2ccc3ccccc3c2s1.O=[N+]([O-])c1cc([N+](=O)[O-])c(O)c([N+](=O)[O-])c1	inactive: -5.08%
CCOC(=O)C(CC)C1=NC(C)(C)Cc2ccccc21.O=[N+]([O-])c1cc([N+](=O)[O-])c(O)c([N+](=O)[O-])c1 (stereo not drawn)	inactive: -2.88%
